Experimental data from PubChem BioAssay AID2675 (National Center for Advancing Translational Sciences (NCATS), 2010).
The list shows a part of the results, in another mix than the full data. Inconclusive results are not listed. Activity calls are given as the source filed them. Calls follow the shape of the dose curve; as a rule, active = well fitted inhibition curve with a large enough effect in the signal ratio, with a control signal flat (not every such curve was filed as active); inconclusive = small, poorly fitted or top-dose-only effect, or effect the other way, or a change in a side signal; inactive = no such curve, though single readings can be large or run the other way; the % refers to the signal ratio.

Protein sequences, listed by entry. Tags and fused reporters are not part of them.
UniProt Q9NR56, whole entry: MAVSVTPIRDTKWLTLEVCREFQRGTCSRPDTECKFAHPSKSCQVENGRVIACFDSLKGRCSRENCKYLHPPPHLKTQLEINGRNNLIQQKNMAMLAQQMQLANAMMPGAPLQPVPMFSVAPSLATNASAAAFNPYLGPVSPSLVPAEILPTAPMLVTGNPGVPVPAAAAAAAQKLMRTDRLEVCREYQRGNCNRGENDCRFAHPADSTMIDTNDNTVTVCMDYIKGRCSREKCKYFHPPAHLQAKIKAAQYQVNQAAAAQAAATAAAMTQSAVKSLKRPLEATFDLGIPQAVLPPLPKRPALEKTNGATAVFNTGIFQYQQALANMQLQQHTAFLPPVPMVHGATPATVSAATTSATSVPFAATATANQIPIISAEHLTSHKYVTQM

What follows are molecules tested against Muscleblind-like protein 1 (Homo sapiens) (UniProt Q9NR56) (assay: qHTS Assay for Inhibitors of MBNL1-poly(CUG) RNA binding). Details: TR-FRET MBNL1-His/biotin-(CUG)12 binding, 665/545 ratio; at 57.5 µM (top of the series).
% is scaled to controls: 0 for no effect and ±100 for the full control effect.

Structure (SMILES)	activity change, negative = inhibition
COc1ccc(C(=O)NCC2(N3CCOCC3)CCCCC2)cc1OC	inactive: -3%
O=C(OC1CN2CCC1CC2)C1c2ccccc2C=Cc2ccccc21 (configuration not stated)	inactive: 11.2%
CCOC(=O)N1CCC(Nc2ccc(C)cc2)CC1	inactive: -2.55%
N/C(=N\O)c1c(N)no[n+]1[O-]	inactive: 9.13%
CC(C)(C)OC(=O)N1CCC(N(C(=O)c2ccccc2)c2ccc(Cl)cc2)CC1	inactive: -8.1%
CN(C)C1(CNC(=O)c2cccc(C#N)c2)CCCCC1	inactive: -10.4%
c1ccc(CN2CCC(Nc3ccccc3)CC2)cc1	inactive: -5.42%
CCCN1CCC(Nc2cc(OC)cc(OC)c2)CC1	inactive: 2.61%
Fc1ccccc1NC1CCN(Cc2ccccc2)CC1	inactive: -11.8%
COc1cc(OC)cc(C(=O)NCC2(N3CCCCC3)CCCCC2)c1	inactive: -7.44%
CN(C)c1ccc(C(=O)NCC2(N3CCCCC3)CCCCC2)cc1	inactive: -6.83%
CCN1CCC(Nc2cccc(F)c2)CC1	inactive: -6.49%
CC(C)(C)OC(=O)N1CCC(Nc2ccccc2)CC1	inactive: -4.7%
O=C(O)C1(Nc2ccccc2)CCN(Cc2ccccc2)CC1	inactive: -3.68%
CCCOc1ccc(C(=O)NCC2(N(C)C)CCCCC2)cc1	inactive: -1.78%
CCOc1ncccc1C(=O)NCC1(N2CCOCC2)CCCCC1	inactive: -7.11%
CN1CCC(Nc2ccc(F)c(Cl)c2)CC1	inactive: -3.13%
CN1CCC(Nc2ccc(Cl)cc2)CC1	inactive: -4.27%
COc1cccc(C(=O)N(c2cc(C)cc(C)c2)C2CCN(C(=O)OC(C)(C)C)CC2)c1	inactive: -3.86%
COc1cc(OC)cc(C(=O)NCC2(N3CCOCC3)CCCCC2)c1	inactive: -1.08%
CCC(CO)(C(=O)OC1CN2CCC1CC2)c1ccccc1 (configuration not stated)	inactive: 8.57%
CSc1ccccc1C(=O)NCC1(N2CCCCC2)CCCCC1	inactive: -6.07%
COc1ccc(C(=O)NCC2(N3CCCCC3)CCCCC2)cc1	inactive: 5.43%
CC(C)(C)OC(=O)N1CCC(N(C(=O)c2ccccc2)c2ccc(F)cc2)CC1	inactive: 0.215%

Structure (SMILES)	activity change, negative = inhibition
COc1ccc(C(=O)NCC2(N3CCCCC3)CCCCC2)c(OC)c1OC	inactive: -9.01%
O=C(NCC1(N2CCCCC2)CCCCC1)c1ccc(=O)[nH]c1	inactive: 3.33%
N#CC1(Nc2ccccc2)CCN(Cc2ccccc2)CC1	inactive: -5.95%
O=C(OC1CN2CCC1CC2)C1c2ccccc2Oc2ccccc21 (configuration not stated)	inactive: 17.2%
CCOC(=O)N1CCC(Nc2ccc(OC)cc2)CC1	inactive: -0.934%
Cc1cc(C)cc(N(C(=O)c2ccccc2)C2CCN(C(=O)OC(C)(C)C)CC2)c1	inactive: -1.79%
O=C(NCC1(N2CCOCC2)CCCCC1)c1cc2ccccc2o1	inactive: 11.1%
O=C(NCC1(N2CCCCC2)CCCCC1)c1ccc(F)cc1	inactive: 1.24%
CCOC(=O)N1CCC(Nc2ccc(F)cc2)CC1	inactive: -2.18%
COc1ccc(NC2CCN(CCc3ccccc3)CC2)c(OC)c1	inactive: -3.16%
CCOC(=O)N1CCC(Nc2cccc(C)c2)CC1	inactive: 0.561%
COc1cc(C(=O)NCC2(N(C)C)CCCCC2)ccc1OC(F)F	inactive: 0.79%
CCN1CCC(Nc2ccc(Cl)cc2)CC1	inactive: -0.989%
N#CC1(Nc2ccccc2)CCN(CCc2ccccc2)CC1	inactive: -14.7%
O=C(NCC1(N2CCCCC2)CCCCC1)c1ccc(OC(F)F)cc1	inactive: -0.877%
COc1cc(C(=O)NCC2(N3CCCCC3)CCCCC2)ccc1OC(F)F	inactive: 14.3%
COc1ccc(NC2CCN(C(=O)OC(C)(C)C)CC2)cc1	inactive: -1.24%
O=C(NCC1(N2CCCCC2)CCCCC1)c1cccc(C(F)(F)F)c1	inactive: -4.74%
COc1cc(OC)c(C(=O)NCC2(N(C)C)CCCCC2)cc1OC	inactive: -0.509%
CC(C)c1ccc(NC2CCN(C(=O)OC(C)(C)C)CC2)cc1	inactive: 0.462%
COc1ccc(CN(CCCl)CCCl)cc1Cl	inactive: -14%
CN(C)c1cccc(C(=O)NCC2(N3CCCCC3)CCCCC2)c1	inactive: 15%
CCCOc1ccc(C(=O)NCC2(N(C)C)CCCCC2)cc1OC	inactive: -6.54%
